Reference: patent publication US7175991B2, “Method of measuring binding site on plasma protein of plasma protein-binding drug and method of measuring plasma protein mutation” (Nihon Medi-Physics Co., Ltd., priority 2002, dated 2007)

Sequences of proteins named here, by UniProt entry; tags and fusion partners are left off. Residues count along the entry.
UniProt P02768, 25-609: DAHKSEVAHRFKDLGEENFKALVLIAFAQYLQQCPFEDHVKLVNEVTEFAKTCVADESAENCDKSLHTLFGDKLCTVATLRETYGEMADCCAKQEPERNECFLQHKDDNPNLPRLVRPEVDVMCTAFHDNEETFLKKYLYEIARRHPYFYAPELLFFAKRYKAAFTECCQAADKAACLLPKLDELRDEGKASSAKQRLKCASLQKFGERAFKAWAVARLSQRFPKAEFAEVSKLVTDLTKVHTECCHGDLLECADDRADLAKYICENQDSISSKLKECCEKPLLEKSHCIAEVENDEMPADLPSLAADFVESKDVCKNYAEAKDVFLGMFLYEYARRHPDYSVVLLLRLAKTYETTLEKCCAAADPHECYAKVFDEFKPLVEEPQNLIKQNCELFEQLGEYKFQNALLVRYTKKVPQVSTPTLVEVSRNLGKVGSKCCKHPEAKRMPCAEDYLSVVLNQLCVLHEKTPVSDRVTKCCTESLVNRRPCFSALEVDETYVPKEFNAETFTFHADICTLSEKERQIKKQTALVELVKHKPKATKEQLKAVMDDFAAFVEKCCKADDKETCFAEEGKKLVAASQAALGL

What was measured:
[1] = tested on: HSA Site II and AGP; conditions: human serum 1, four nuclides
[2] = target: HSA Site II (Homo sapiens, UniProt P02768); conditions: 400 μM, pH 7.4

Q: With `CC(C)Cc1ccc(C(C)C(=O)O)cc1` (centres unmarked) [IPF, ibuprofen] as the compound, how does the “Displacement effect on drug with affinity to both site II of HSA and AGP (^125I-IMP), in words” value [1] read?
A: exhibited displacement effect

Q: `CC(C)NCC(O)COc1cccc2ccccc12` (centres unmarked) [PPL, propranolol] was tested. Which “Change ratio (time) of ^14C-DZP free drug ratio” value [2] did it give?
A: 1.06 time
